Here are results for one molecule from patent publication US20110318266A1, “PHTHALIMIDE DERIVATIVE METABOTROPIC GLUTAMATE R4 LIGANDS” (priority 2008, published 2011).

Protein sequences, listed by entry. Tags and fused reporters are not part of them. Residues count along the entry.
UniProt Q14833, 33-912: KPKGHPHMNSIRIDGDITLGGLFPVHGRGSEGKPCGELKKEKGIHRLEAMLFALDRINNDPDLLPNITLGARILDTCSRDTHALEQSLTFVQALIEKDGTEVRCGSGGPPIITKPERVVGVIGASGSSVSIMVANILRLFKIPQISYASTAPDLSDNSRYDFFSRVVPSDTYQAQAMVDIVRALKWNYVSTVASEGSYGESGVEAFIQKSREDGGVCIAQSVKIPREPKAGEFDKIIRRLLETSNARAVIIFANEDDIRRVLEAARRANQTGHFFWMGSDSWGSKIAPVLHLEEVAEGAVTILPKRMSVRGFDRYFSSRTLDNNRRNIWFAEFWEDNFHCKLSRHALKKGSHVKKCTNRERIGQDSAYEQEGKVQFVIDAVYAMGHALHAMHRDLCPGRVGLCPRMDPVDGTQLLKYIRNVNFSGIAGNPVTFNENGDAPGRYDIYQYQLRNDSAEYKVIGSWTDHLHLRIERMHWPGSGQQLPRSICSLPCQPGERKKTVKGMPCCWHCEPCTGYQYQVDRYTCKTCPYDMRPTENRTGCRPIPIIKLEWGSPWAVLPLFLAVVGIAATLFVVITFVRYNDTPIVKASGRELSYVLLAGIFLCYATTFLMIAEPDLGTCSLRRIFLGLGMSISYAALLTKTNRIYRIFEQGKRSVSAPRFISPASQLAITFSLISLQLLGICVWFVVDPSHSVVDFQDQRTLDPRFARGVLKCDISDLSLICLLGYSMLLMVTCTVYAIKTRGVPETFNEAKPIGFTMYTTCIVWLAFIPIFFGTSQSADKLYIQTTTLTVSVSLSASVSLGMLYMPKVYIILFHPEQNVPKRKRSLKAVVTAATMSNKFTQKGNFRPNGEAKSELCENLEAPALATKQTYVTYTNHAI

For the test, the target named is mGluR4 (Homo sapiens, UniProt Q14833). Kind of test: mGluR4 Binding Assay. Conditions: membranes from CHO cells expressing human mGluR4; 20 uM L-AP4; 7 nM radiotracer [3H]-N-(4-{[(2-Chlorophenyl)amino]sulfonyl}phenyl)pyridine-2-carboxamide. Further details: expressed in transfected cells; host or cells: CHO cells.

One may read the IC50 as the point on the concentration scale where inhibition reaches its midpoint. The low end stands for greater potency in that assay, the high end for weaker potency in that assay. `O=C(Nc1ccc(N2C(=O)c3cccc(F)c3C2=O)c(Cl)c1)c1ccccn1` [Example 10, N-[3-chloro-4-(4-fluoro-1,3-dioxo-1,3-dihydro-2H-isoindol-2-yl)phenyl]pyridine-2-carboxamide] had an IC50 of 0.036 µM.
